# Reported melting point values for industrial, environmental and drug-like chemicals

Source: data files of OPERA 2.9 (Mansouri et al.), github.com/kmansouri/OPERA.

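These are experimental values that the OPERA curators gathered from public databases to train and test their QSAR models. The files give a single number for a compound and property, which may rest on several reports. Method and conditions are not stated for these values. Where a salt, mixture or single isomer is drawn, the source does not say that exactly this form was tested. Some upstream entries may be estimates or bounds without being marked so.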

Melting points are in °C.
Cells with "n/a" have no entry in this list.
"via" names the databases from which the curators took the value.

compound	name	MP (°C)	via
Cc1ccc(NCCC#N)cc1	3-p-Tolylamino-propionitrile	111	OCHEM
OCc1cn(-c2ccccc2)nc1-c1ccccc1	(1,3-diphenyl-1h-pyrazol-4-yl)-methanol	92	OCHEM
CC(C)(C)OC(=O)Nc1ccc(C(F)(F)F)cc1N	tert-Butyl [2-amino-4-(trifluoromethyl)phenyl]carbamate	141	OCHEM
COC(C)COC(C)CO (stereo not drawn)	2-(2-Methoxypropoxy)propanol	-81.39	PubChem
O=C(O)Cc1ccc2c(c1)CCC2	2,3-dihydro-1h-inden-5-ylacetic acid	88	OCHEM
CCCC[N+](CC)(CCCC)CCCC.CCOS(=O)(=O)[O-]	Tributylethylammonium ethyl sulphate	61.6	eChemPortal
Cn1nc2c(c1N)CCC2	2-Methyl-2,4,5,6-tetrahydrocyclopenta[c]pyrazol-3-amine	135	OCHEM
CNc1ccncc1[N+](=O)[O-]	n-methyl-3-nitropyridin-4-amine	158	OCHEM
Cc1nc(-c2ccc(F)cc2)sc1C(=O)O	2-(4-Fluorophenyl)-4-methyl-1,3-thiazole-5-carboxylic acid	252	OCHEM
Cc1cc(C)c2[nH]c(=O)cc(C)c2c1	4,6,8-trimethyl-quinolin-2-ol	262	OCHEM
CC(=O)c1sc2nc(C)cc(C)c2c1N	1-(3-Amino-4,6-dimethylthieno[2,3-b]pyridin-2-yl)ethan-1-one	175	OCHEM
O=C1CNc2ccccc2N1	2(1H)-Quinoxalinone, 3,4-dihydro-	120	OCHEM
COC1CC[C@]2(O1)[C@H]1C[C@H]1[C@H]1[C@@H]3C=CC4=CC(=O)CC[C@]4(C)[C@H]3CC[C@@]12C (some centres undefined)	n/a	145	eChemPortal
N#Cc1c(Cl)nsc1Cl	3,5-Dichloroisothiazole-4-carbonitrile	65	OCHEM
Fc1ccc2c(Cl)ncnc2c1	4-Chloro-7-fluoroquinazoline	91	OCHEM
COc1ccc2c(O[C@@H]3C[C@H]4C(=O)N[C@]5(C(=O)O)C[C@H]5C=CCCCCN(C)C(=O)[C@@H]4C3)cc(-c3nc(C(C)C)cs3)nc2c1C	n/a	240.1	eChemPortal
CC(C)(C)NS(=O)(=O)c1cc(C(=O)O)ccc1Cl	3-(tert-butylsulfamoyl)-4-chlorobenzoic acid	213	OCHEM
NS(=O)(=O)c1cccc(C(=O)O)c1	3-sulfamoylbenzoic acid	239	OCHEM
CC(C)c1ccc(C=NO)cc1	4-(1-Methylethyl)benzaldehyde oxime	65	OCHEM
Cc1ccc(-c2csc(=S)[nH]2)cc1	4-(4-methylphenyl)-1,3-thiazole-2-thiol	193	OCHEM
CCN(CC)c1nc(=O)cc(C)[nH]1	2-(Diethylamino)-6-methyl-1H-pyrimidin-4-one	134	eChemPortal
O=C(COC(=O)c1ccccc1)NC(CO)(CO)CO	n/a	126	OCHEM
O=C(O)c1ccccc1-c1nc2ccccc2s1	2-(1,3-benzothiazol-2-yl)benzoic acid	191	OCHEM
c1ccc(NC2CCCCC2)nc1	N-Cyclohexylpyridin-2-amine	124	OCHEM
O=C(O)Cc1csc(-c2ccc(F)cc2)n1	[2-(4-fluorophenyl)-1,3-thiazol-4-yl]acetic acid	130	OCHEM
COc1cc(-c2n[nH]c(=S)o2)cc(OC)c1OC	5-(3,4,5-trimethoxyphenyl)-1,3,4-oxadiazole-2-thiol	98	OCHEM
c1ccc2sc(C3CCCCN3)nc2c1 (stereo not drawn)	2-piperidin-2-yl-1,3-benzothiazole	201	OCHEM
CC(C)=CCC[C@]1(C)[C@@H](CC=C(C)C)C[C@]2(CC=C(C)C)C(=O)C(CC=C(C)C)=C(O)[C@@]1(C(=O)C(C)C)C2=O	Hyperforin	79.5	PubChem
CN(C)CCOCCN(C)CCCN	n/a	-76	eChemPortal
O=C1C(=O)N(CN2CCN(CCO)CC2)c2ccccc21	n/a	158	OCHEM
CC(=O)c1cn(C)nc1C	1-(1,3-dimethyl-1H-pyrazol-4-yl)ethanone	73	OCHEM
CC(CO)C1CCCCCCCCCCC1 (stereo not drawn)	2-Cyclododecylpropan-1-ol	34.9	eChemPortal
COC(=O)c1c(O)cc(=O)n2c1CCC2	n/a	168	OCHEM
CC(=O)c1ccc(-c2ccc(C(=O)O)o2)cc1	5-(4-acetylphenyl)-2-furoic acid	220	OCHEM
COc1cc(OC)cc(-c2n[nH]c(=S)n2N)c1	n/a	179	OCHEM
CCCCOCCOCCOCCOCCO	3,6,9,12-Tetraoxahexadecan-1-ol	-29	PubChem, eChemPortal
CC1(C)CC(NCCC#N)CC(C)(CNCCC#N)C1 (stereo not drawn)	n/a	-52	eChemPortal
Nc1ccc(S(=O)(=O)N2CCCCCC2)cc1	4-(azepan-1-ylsulfonyl)aniline	106	OCHEM
CC(O)CN(CC(C)O)C(=O)COC(=O)c1ccccc1 (stereo not drawn)	2-[Bis(2-hydroxypropyl)amino]-2-oxoethyl benzoate	106	OCHEM
Clc1ccc(Cl)c(-c2c(Cl)cccc2Cl)c1	n/a	103	QSARDB
Brc1cnc(N2CCCCC2)nc1OCc1ccccc1	4-(Benzyloxy)-5-bromo-2-(piperidin-1-yl)pyrimidine	106.5	OCHEM
Oc1ccc2c(n1)CCC2	6,7-Dihydro-5H-cyclopenta[b]pyridin-2-ol	37	OCHEM
NCC(=O)NCC(=O)NCC(=O)O	Glycyl-glycyl-glycine	246	PubChem
O=c1[nH]cc(S(=O)(=O)Cl)c(=O)[nH]1	2,4-Dioxo-1,2,3,4-tetrahydropyrimidine-5-sulfonyl chloride	156	OCHEM
CC(Cl)c1nnc(-c2ccccc2)o1 (stereo not drawn)	2-(1-chloroethyl)-5-phenyl-1,3,4-oxadiazole	17	OCHEM
O=C(O)c1cccc(C(=O)O)n1	2,6-Pyridinedicarboxylic acid	241.2	PubChem, eChemPortal